Experiment in all cases: fluorescence polarisation
Background: Fluorescence polarisation rises when a labelled molecule tumbles more slowly, as on binding a larger partner.

For assay [1], the target named is N-terminal bromodomain of BRDT.
Assay [2] addresses C-terminal bromodomain of BRD2.
In assay [3] the target is N-terminal bromodomain of BRD3.
The target in assay [4] is C-terminal bromodomain of BRD4.
For assay [5], the target named is C-terminal bromodomain of BRD3.

The Kd is the equilibrium constant for the complex coming apart. Low values mean tighter binding, high ones weaker binding.

On to “histone H4(1-11) peptide H4K5acetylK8succinyl”, for which the Kd in assay [1] came out at 83 µM; in assay [2] it was 310 µM; in assay [3], 87 µM.
In the case of histone H4(1-11) peptide H4K5acetyl, the Kd in assay [1] stood at 303 µM; in assay [4] it was 525 µM; in assay [2] it was 145 µM; in assay [5], 397 µM; in assay [3] it was 44 µM.
In the case of “histone H4(1-11) peptide H4K5crotonylK8acetyl”, in assay [3], the Kd was determined as 399 µM.
On to histone H4(1-11) peptide H4K5/8diacetyl, for which the Kd in assay [1] worked out at 15 µM; in assay [4], 740 µM; in assay [2], 182 µM; in assay [5], 920 µM; in assay [3], 93 µM.
With “histone H4(1-11) peptide H4K5acetylK8hydroxyisobutyryl”, the Kd is 120 µM in assay [1] and 223 µM in assay [2].
In the case of “histone H4(1-11) peptide H4K5acetylK8propionyl”, the results for the Kd in assay [1], in assay [2] and in assay [3] were 76 µM, 187 µM and 59 µM, respectively.
Consider “histone H4(1-11) peptide H4K5propionylK8acetyl”, for which the equilibrium dissociation constant (Kd) came to 116 µM in assay [1] and 206 µM in assay [2].
Consider “histone H4(1-11) peptide H4K5acetylK8crotonyl”, for which the Kd in assay [1] is 32 µM; in assay [2], 169 µM; in assay [3], 34 µM.
On to “histone H4(1-11) peptide H4K5/8dipropionyl”, for which the Kd stood at 58 µM in assay [1], 960 µM in assay [4], 131 µM in assay [2] and 360 µM in assay [3].
In the case of histone H4(1-11) peptide H4K8acetyl, the Kd in assay [1] stood at 279 µM; in assay [2], 361 µM; in assay [5], 284 µM; in assay [3], 109 µM.
As to “histone H4(1-11) peptide H4K5hydroxyisobutyrylK8acetyl”, the Kd in assay [2] came out at 166 µM; in assay [3], 186 µM.
“histone H4(1-11) peptide H4K5/8dicrotonyl” showed a Kd in assay [3] of 270 µM.
In the case of “histone H4(1-11) peptide H4K5acetylK8butyryl”, the Kd in assay [1] came to 88 µM; in assay [2], 337 µM.
For the substance “histone H4(1-11) peptide H4K5acetylK8glutaryl”, the Kd came out at 131 µM in assay [1], 219 µM in assay [2] and 123 µM in assay [3].

These data come from PMC5970795.
